Laboratory results from patent US20040146519A1, “Inducing cellular immune responses to carcinoembryonic antigen using peptide and nucleic acid compositions” (priority 2002, published 2004).
Values belong to the binder of their own block, whether it stands above or below them.

Assays:
Conditions in all cases: remark: other sources report otherwise
[1] = molecular target: HLA-B*5301 (human); test: inhibition of 125I probe peptide, purified HLA
[2] = molecular target: HLA-B*5101 (human); test: inhibition of 125I probe peptide, purified HLA
[3] = molecular target: HLA-B*3501 (human); test: inhibition of 125I probe peptide, purified HLA
[4] = molecular target: HLA-B*0702 (human); test: inhibition of 125I probe peptide, purified HLA
[5] = molecular target: HLA-A*6801 (human); test: competition with 125I probe peptide for purified HLA
[6] = molecular target: HLA-A*1101 (human); test: as above
[7] = molecular target: HLA-A*3301 (human); test: as above
[8] = molecular target: HLA-A*0101 (human); test: inhibition of 125I probe peptide, purified HLA

B1: CEA.13.I10 (peptide)
peptide: IPWQRLLLTI
- IC50 [1]: 291 nM

B2: CEA.58.I10 (peptide)
peptide: LPQHLFGYSI
- IC50 [2]: 262 nM

B3: CEA.102 (peptide)
peptide: YPNASLLI
- IC50 [3]: 514 nM
- IC50 [4]: 196 nM
- IC50 [2]: 8.1 nM

B4: CEA.13, 10 AA (peptide)
peptide: IPWQRLLLTA
- IC50 [1]: 2660 nM
- IC50 [2]: 2120 nM

B8: CEA.418, 10 AA (peptide)
peptide: PTISPSYTYY
- IC50 [8]: 325 nM

Next, values leading:

- IC50 [5]: 42 nM
- IC50 [6]: 94 nM
- IC50 [7]: 7630 nM
B5: CEA.554.V2 (peptide)
peptide: RVLTLFNVTR

- IC50 [8]: 74 nM
B6: CEA.616 (peptide)
peptide: HSASNPSPQY

- IC50 [7]: 1610 nM
B7: CEA.554 (peptide)
peptide: RTLTLFNVTR
